In patent US4782069A, “1,4-Dihydropiridines and their use as antithrombotic drugs” (Alter, S.A., priority 1986, dated 1988) one finds inhibition data, which are given here for one compound.

Holding throughout (type): cell-based
For test [1], the system named is human platelets (ADP-induced aggregation). Description: "In vitro" aggregation on human platelets (PRP), ADP-induced. The note with it: Platelet, 0.25 h, compound 10^-4 M, 37° C., 15 minutes, 2.5 uM ADP. The protocol: (§1) (A) "IN VITRO" A[…] HUMAN PLATELETS (Born, G.V.R., Nature 194:927 (1962)).
(§2) Citrated human blood was used, from which platelet-rich plasma (PRP) was prepared. 450 ul PRP aliquots were incubated at 37° C. with the assayed compounds at a single concentration of 10^-4 M for 15 minutes. Aggregating agents (2 ug/ml collagen and 2.5 uM ADP) were added in a 50 ul volume and the aggregation was measured as optical density decrease in the platelet suspension.

Test [2] concerns human platelets (ATP secretion). Description: Releasing reaction (ATP secretion from activated platelets), simultaneous to collagen aggregation. Particulars: Platelet, 0.25 h, human PRP, compound 10^-4 M, 37° C., 15 minutes, 2 ug/ml collagen. Here is the method: as §2
The test system of test [3] is human platelets (collagen-induced aggregation). Nature of the test: "In vitro" aggregation on human platelets (PRP), collagen-induced. Particulars: Platelet, 0.25 h, compound 10^-4 M, 37° C., 15 minutes, 2 ug/ml collagen. Here is the method: as §1, §2

Usually inhibition stands for the percentage by which the read-out fell short of the control. Turning to `OCCN(CCO)c1nc(N2CCCCC2)c2nc(N(CCO)CCO)nc(N3CCCCC3)c2n1` [DIPYRIDAMOL, reference compound], the inhibition at 100 µM worked out at 17% in test [1], 38% in test [2] and 21% in test [3].
